Measured values from patent publication US5641774A, “Compounds useful as antiproliferative agents and garft inhibitors” (Agouron Pharmaceuticals, Inc., priority 1995, dated 1997).

Tested on: C3H/BA mammary adenocarcinoma
Type: in vivo, mice (C3H/He)
Details: 5 mg/kg i.p. once daily for nine days
Protocol: On day zero, 2 mm^2 trocar fragments of C3H/BA mammary adenocarcinoma were implanted subcutaneously in the axillary region into groups of six C3H/He female mice. Starting on day 1, the test compound was administered intraperitoneally in 40% Encapsin given once daily for nine days. Control animals received identical treatment without test compound. The percentage of inhibition was calculated by comparing the mass of the control tumors (receiving diluent only) on day 14 to those of animals receiving test compound.

With Nc1nc2c(c(=O)[nH]1)SC(CCc1ccc(C(=O)N[C@@H](CCC(=O)O)C(=O)O)s1)CN2 (stereo partly drawn) [Compound 21, 4-[2-(2-Amino-4-oxo-4,6,7,8-tetrahydro-3H-pyrimido[5,4-6][1,4]thiazin-6-yl)-ethyl]-2,5-thienoylamino-L-glutamic acid] the Survivors was 5/6.
